# miR-21 reporter: raises the signal of a miR-21 reporter | HeLa miR-21 FLuc reporter, luciferase, 48 h | Potency, µM (highest dose often 38.3 µM) | 340,000 tested, under 10 active | AID 2288; active = well fitted rising curve with a large enough effect; inconclusive = small, poorly fitted or top-dose-only effect; inactive = no such curve, though single readings can be large or run the other way;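 also: miR-21 action dims this reporter so a rising signal means less miR-21 action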
#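 HeLa cells stably expressing CMV-driven firefly luciferase with a downstream miR-21 binding sequence, endogenously expressing miR-21, were treated with titrations (up to about 40uM final) for 48 hours at 37 degree Celsius. Luciferase luminescence was read after lysis.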
# Nrf2 inh: blocks Nrf2 signaling. A549 ARE-Fluc reporter, luciferase luminescence, 18-24 h. Potency, µM (top dose mostly 46 µM), actives largely listed as inhibitors. actives 2.1% (n = 360,000); further: nearly all actives have a fitted effect of over 60% in size
#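 Quantitative HTS in A549 cells stably bearing an antioxidant response element-firefly luciferase construct. Inhibition of Nrf2-driven transcription was scored by luminescence after 18-24 h of compound exposure at 37 °C.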
# A549 tox: A549 cytotoxicity, counter-screen for Nrf2 inhibitors; A549 ARE-Fluc cells, CellTiter-Fluor viability, 18-24 h; Potency, µM (top dose mostly 46 µM), most hits filed as inhibitors; actives 0.16% (n = 390,000); AID 504648
#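 Cytotoxicity counterscreen: CellTiter-Fluor fluorescence was measured in A549 ARE_Fluc cells after 18-24 h of compound exposure in a concentration series. The subsequent BugLite luminescent read reports ARE-luciferase activity.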
# Nrf2 activator: activators of Nrf2 (ARE) signaling. AREc32 ARE-luciferase reporter (MCF7-derived line), luminescence, 24 h. Potency, µM (titrated, usually from 46.1 µM), usual class: activators. actives 0.31% (n = 410,000). AID 624171; further: nearly all actives have a fitted effect of over 65% in size
#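 For detection, Steady-Glo was added and plates sat 30 min at RT; before that, AREc32_Fluc cells grown overnight in OPTI-MEM/5% FBS had been treated with 23 nL compound for 24 hr at 37 deg C.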
# GRP78 ERSR act: inducers of ER stress response in human glioma cells; U87-MG GRP78 promoter luciferase reporter, 16 h; actives 0.02% (n = 420,000); Potency, µM, hits mostly activators; further: series mostly up to about 76 µM; nearly all actives have a fitted effect of over 35% in size
#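 ERSR induction read as luciferase luminescence (Bright-Glo, 10 min at room temperature) in stably transfected human U87-MG glioma cells exposed to compounds for 16 h, using GRP78 as sensor.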
# Mito fusion act: mitochondrial division inhibition or fusion activation; S. cerevisiae fusion-defective mutant growth rescue, CellTiterGlo 48 h; Potency, µM (highest dose often 46.1 µM), hits mostly activators; actives 0.23% (n = 320,000); further: nearly all actives have a fitted effect of over 45% in size
#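 Compounds are tested for their ability to restore growth of mitochondrial fusion-defective yeast strains at non-permissive 37C in YPEG medium over 48 hours. Viability is quantified by luciferase luminescence.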
# Numbers stand for hits; i = inactive; ? = inconclusive; nt = not tested or not shown. Shown are actives, neighbours in structure and some others; about 2.3% of the full set was active somewhere. Unless noted, the call rests on the fitted dose curve; in most records, active means well fitted curve in the direction sought with a large enough effect; inconclusive means small, poorly fitted or top-dose-only effect, or another doubt; inactive means no such curve, though single readings can be large; an effect the other way counts as inactive or inconclusive.
SMILES,miR-21 reporter,Nrf2 inh,A549 tox,Nrf2 activator,GRP78 ERSR act,Mito fusion act
CC(=NNC(=S)N1CC2CCC(CC2)C1)c1cccc(C)n1,nt,?,9.2µM,i,i,nt
CC(=NNC(=S)N1CCCC1)c1ccccn1,nt,nt,nt,?,i,nt
COC(=O)CN1C(=O)CSc2ccc(S(=O)(=O)Nc3cccc(C)c3C)cc21,i,i,i,i,i,nt
CCCCn1c(SCc2nc(N)nc(Nc3ccccc3C)n2)nc2ccccc2c1=O,i,21µM,i,i,i,i
C=CCn1c(SCC(=O)N(C)C)nc2cc(C(=O)O)ccc2c1=O,i,i,i,i,i,i
CS(=O)(=O)N1CCc2cc(-c3csc(NC(=O)Cc4cccs4)n3)ccc21,?,18µM,i,i,i,i
COc1cccc(C(=O)OC(C)C(=O)Nc2ccc3c(c2)OCO3)c1 (stereo not drawn),nt,?,i,i,i,i
Cc1cc(N)ccc1NC(=O)c1ccccc1,i,i,i,i,i,i
Cc1cc(NC(=O)c2ccccc2)c(Cl)cc1N,i,8.2µM,i,i,i,i
COc1ccc(Nc2sc(C(=O)c3ccc(Cl)cc3)c(N)c2C(=O)Nc2ccccc2OC)cc1,i,?,i,i,?,i
COc1ccc(NC(=O)c2c(Nc3ccccc3)sc(C(=O)c3ccc(F)cc3)c2N)cc1,i,?,i,i,i,i
Cc1cc(Nc2sc(C(=O)c3ccc(F)cc3)c(N)c2C(=O)Nc2ccc(F)cc2)ccc1Cl,?,nt,16µM,i,i,nt
COc1ccc(C(=O)c2sc(Nc3cccc(OC)c3)c(C(=O)Nc3cccc(C)c3C)c2N)cc1,i,23µM,?,i,13µM,i
c1ccc(C2=Nc3c(ccc4ccccc34)C(c3ccncc3)=NN2)cc1,i,i,i,i,i,i
O=C(CCNc1cccc(C(F)(F)F)c1)c1ccco1,i,i,i,16µM,i,i
O=C(CCNc1ccc(Cl)c(C(F)(F)F)c1)c1ccco1,i,i,i,?,i,i
O=C1C=C(c2cccc(Cl)c2O)C[C@@H](c2ccc(Cl)cc2)C1,nt,i,i,i,i,13µM
COc1ccc(C2CC(c3ccc(Cl)cc3)=NN2C(=O)c2cccc([N+](=O)[O-])c2)cc1 (stereo not drawn),i,i,i,i,i,i
COC1=C(N)C(=O)c2nc(-c3nc(C(=O)O)c(C)c(-c4ccc(OC)c(OC)c4O)c3N)ccc2C1=O,?,0.073µM,2.6µM,i,i,i
O=C(CNC(=O)c1ccccc1Cl)Nc1ccncc1,nt,i,i,i,i,i
O=C(CSc1nnc(-c2ccco2)c(-c2ccco2)n1)Nc1ccccc1,i,i,i,13µM,i,i
Cc1ccc(NC(=O)CSc2nnc(-c3ccco3)c(-c3ccco3)n2)cc1,i,?,?,?,i,i
CSc1nnc(-c2ccco2)c(-c2ccco2)n1,i,i,i,7.9µM,i,i
CCN(C(=O)Cn1cc(C(F)(F)F)ccc1=O)C1CCS(=O)(=O)C1 (stereo not drawn),nt,nt,nt,i,i,nt
N#CC(c1ccccc1)c1cccc(Cl)n1 (stereo not drawn),i,i,i,i,i,i
SMILES,miR-21 reporter,Nrf2 inh,A549 tox,Nrf2 activator,GRP78 ERSR act,Mito fusion act
Cn1cc(-c2csc(C(O)c3ccccc3)n2)cn1 (stereo not drawn),nt,nt,nt,i,i,nt
Cc1cccc(Oc2ccc(NC(=O)CCC(=O)OCC(=O)c3ccc(Br)cc3)cc2)c1C,i,i,i,i,i,nt
CCCCCCCCn1c2c(c(=N)c3ccccc31)CCC2,i,2.9µM,?,i,i,i
CCCCn1c2c(c(=N)c3ccccc31)CCC2,?,i,i,i,i,i
CC12CCC(=O)C=C1CCC1C2C(O)CC2(C)C(c3csc(N)n3)CCC12 (stereo not drawn),nt,23µM,i,i,i,nt
CC12CCC(=O)C=C1CCC1C2CCC2(C)C(c3csc(N)n3)CCC12 (stereo not drawn),nt,18µM,?,i,i,nt
C[C@@]12C[C@@H](O)[C@H]3[C@@H](CCC4=CC(=O)CC[C@]43C)[C@H]1CC[C@H]2C(=O)CO,nt,nt,nt,nt,i,nt
CC(=O)C1CCC2C3CCC4=CC(=O)CCC4(C)C3CCC12C (stereo not drawn),nt,nt,nt,nt,i,nt
COc1ccc(NS(=O)(=O)c2ccc(Oc3ncccn3)cc2)cc1,i,21µM,i,i,i,i
COc1ccc(NS(=O)(=O)c2ccc(-c3coc(C)n3)cc2)cc1,i,16µM,i,i,i,i
Cc1nc(-c2ccc(S(=O)(=O)Nc3ccc(S(N)(=O)=O)cc3)cc2)co1,i,i,i,i,i,i
O=C(CN1CCCCC1)NN(Cc1ccccc1)c1ccccc1,?,i,i,i,i,i
CC(=O)NCCCC(=O)NNC1CC(=O)N(c2cccc(Cl)c2)C1=O (stereo not drawn),i,i,i,i,i,i
CCCCSc1nc(N)c(C#N)c(-c2cccs2)c1C#N,i,?,?,i,i,4µM
CC(=O)CSc1nc(N)c(C#N)c(-c2cccs2)c1C#N,i,?,i,i,i,i
Cc1cccc(CSc2nc(N)c(C#N)c(-c3cccs3)c2C#N)c1,i,?,?,i,i,13µM
COC(=O)C1=CC(C(=O)c2cccs2)=NN(c2ccc(OC)cc2)C1C(=O)OC (stereo not drawn),i,i,?,i,i,18µM
Cc1ccc([N+](=O)[O-])cc1N(CC(=O)Nc1ccc(S(=O)(=O)Nc2cccc(C(F)(F)F)c2)cc1)S(C)(=O)=O,?,21µM,?,i,i,i
COc1ccccc1N(CC(=O)Nc1cccc(C(F)(F)F)c1)S(C)(=O)=O,i,i,i,i,i,i
Cc1ccc(SC(C)C(=O)Nc2ccncc2)cc1 (stereo not drawn),i,13µM,i,i,i,i
Cc1ccc(SC(C)C(=O)Nc2cccnc2)cc1 (stereo not drawn),i,i,i,i,i,i
N=c1c2c(ccn1-c1ccccc1)Oc1ccc3ccccc3c1C2c1ccccc1 (stereo not drawn),nt,16µM,?,nt,nt,nt
N=c1c2c(ccn1CCCc1ccccc1)Oc1ccc3ccccc3c1C2c1ccccc1 (stereo not drawn),nt,15µM,15µM,nt,nt,nt
COc1cccc(C2c3c(ncn(-c4ccc(-c5ccccc5)cc4)c3=N)Oc3ccc4ccccc4c32)c1 (stereo not drawn),nt,?,i,nt,nt,nt
CCC(C)N1C(=O)N(C)C2NC(=O)NC21 (stereo not drawn),i,i,i,i,i,i
CCn1c(SCC(=O)N/N=C/C=C\c2ccccc2[N+](=O)[O-])nnc1-c1ccccc1,i,16µM,i,i,i,i

# Bioassay records deposited in PubChem by National Center for Advancing Translational Sciences (NCATS).
